Measurements: PubChem BioAssay (NCI)
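Exposure lasted 48 hours, with cells grown in 96-well plates and compounds tested at five concentrations. At the GI50, growth is halved. TGI denotes the concentration required for complete inhibition of growth.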

Key:
Assay in all cases: inhibition of tumour cell growth, NCI panel, 48 h
A498 renal = system: A498 renal
UO-31 renal = system: UO-31 renal
NCI-H226 lung = system: NCI-H226 lung
SF-268 CNS = system: SF-268 CNS
SF-539 CNS = system: SF-539 CNS
HL-60(TB) leukemia = system: HL-60(TB) leukemia
HCT-15 colon = system: HCT-15 colon
CCRF-CEM leukemia = system: CCRF-CEM leukemia
786-0 renal = system: 786-0 renal
OVCAR-3 ovarian = system: OVCAR-3 ovarian
KM12 colon = system: KM12 colon
OVCAR-8 ovarian = system: OVCAR-8 ovarian
HCC-2998 colon = system: HCC-2998 colon
HT29 colon = system: HT29 colon
K-562 leukemia = system: K-562 leukemia
CAKI-1 renal = system: CAKI-1 renal
SK-MEL-5 melanoma = system: SK-MEL-5 melanoma
BT-549 breast = system: BT-549 breast
MDA-N = system: MDA-N
NCI-H522 lung = system: NCI-H522 lung
TK-10 renal = system: TK-10 renal
UACC-62 melanoma = system: UACC-62 melanoma
SN12C renal = system: SN12C renal
HOP-92 NSCLC = system: HOP-92 NSCLC
SNB-19 CNS = system: SNB-19 CNS
MDA-MB-435 = system: MDA-MB-435
NCI-H460 lung = system: NCI-H460 lung
HCT-116 colon = system: HCT-116 colon
EKVX NSCLC = system: EKVX NSCLC
MOLT-4 leukemia = system: MOLT-4 leukemia
NCI/ADR-RES ovarian = system: NCI/ADR-RES ovarian
MALME-3M melanoma = system: MALME-3M melanoma
RXF 393 renal = system: RXF 393 renal
UACC-257 melanoma = system: UACC-257 melanoma
PC-3 prostate = system: PC-3 prostate
OVCAR-4 ovarian = system: OVCAR-4 ovarian
NCI-H322M lung = system: NCI-H322M lung
M14 melanoma = system: M14 melanoma
MCF7 breast = system: MCF7 breast
HOP-62 NSCLC = system: HOP-62 NSCLC
LOX IMVI melanoma = system: LOX IMVI melanoma
SK-MEL-2 melanoma = system: SK-MEL-2 melanoma
RPMI-8226 leukemia = system: RPMI-8226 leukemia
HS 578T breast = system: HS 578T breast
OVCAR-5 ovarian = system: OVCAR-5 ovarian
COLO 205 colon = system: COLO 205 colon
SK-MEL-28 melanoma = system: SK-MEL-28 melanoma
SW-620 colon = system: SW-620 colon
IGROV1 ovarian = system: IGROV1 ovarian
SF-295 CNS = system: SF-295 CNS
ACHN renal = system: ACHN renal
SR leukemia = system: SR leukemia
U251 CNS = system: U251 CNS
A549 NSCLC = system: A549 NSCLC
T-47D breast = system: T-47D breast
SNB-75 CNS = system: SNB-75 CNS
DU-145 prostate = system: DU-145 prostate
NCI-H23 lung = system: NCI-H23 lung
SK-OV-3 ovarian = system: SK-OV-3 ovarian
MDA-MB-231 breast = system: MDA-MB-231 breast

CN1CCCC(OC(=O)C(c2ccccc2)c2ccccc2)C1 (stereo not given)
GI50 (A498 renal): 54.4 µM | TGI (A498 renal): > 100 µM | GI50 (UO-31 renal): 44.2 µM | TGI (UO-31 renal): > 100 µM | GI50 (NCI-H226 lung): 23 µM | TGI (NCI-H226 lung): > 100 µM | GI50 (SF-268 CNS): > 100 µM | TGI (SF-268 CNS): > 100 µM | GI50 (SF-539 CNS): > 100 µM | TGI (SF-539 CNS): > 100 µM | GI50 (HL-60(TB) leukemia): 25.1 µM | TGI (HL-60(TB) leukemia): > 100 µM | GI50 (HCT-15 colon): > 100 µM | TGI (HCT-15 colon): > 100 µM | GI50 (CCRF-CEM leukemia): 74.1 µM | TGI (CCRF-CEM leukemia): > 100 µM | GI50 (786-0 renal): 80.8 µM | TGI (786-0 renal): > 100 µM | GI50 (OVCAR-3 ovarian): 39.8 µM | TGI (OVCAR-3 ovarian): > 100 µM | GI50 (KM12 colon): > 100 µM | TGI (KM12 colon): > 100 µM | GI50 (OVCAR-8 ovarian): > 100 µM | TGI (OVCAR-8 ovarian): > 100 µM | GI50 (HCC-2998 colon): 23 µM | TGI (HCC-2998 colon): 47.6 µM | GI50 (HT29 colon): 30.2 µM | TGI (HT29 colon): > 100 µM | GI50 (K-562 leukemia): 33.3 µM | TGI (K-562 leukemia): > 100 µM | GI50 (CAKI-1 renal): 89.6 µM | TGI (CAKI-1 renal): > 100 µM | GI50 (SK-MEL-5 melanoma): 31.1 µM | TGI (SK-MEL-5 melanoma): > 100 µM | GI50 (BT-549 breast): > 100 µM | TGI (BT-549 breast): > 100 µM | GI50 (MDA-N): 71.7 µM | TGI (MDA-N): > 100 µM | GI50 (NCI-H522 lung): > 100 µM | TGI (NCI-H522 lung): > 100 µM | GI50 (TK-10 renal): > 100 µM | TGI (TK-10 renal): > 100 µM | GI50 (UACC-62 melanoma): 56.1 µM | TGI (UACC-62 melanoma): > 100 µM | GI50 (SN12C renal): > 100 µM | TGI (SN12C renal): > 100 µM | GI50 (HOP-92 NSCLC): 39.8 µM | TGI (HOP-92 NSCLC): > 100 µM | GI50 (SNB-19 CNS): > 100 µM | TGI (SNB-19 CNS): > 100 µM | GI50 (MDA-MB-435): 83.6 µM | TGI (MDA-MB-435): > 100 µM | GI50 (NCI-H460 lung): > 100 µM | TGI (NCI-H460 lung): > 100 µM | GI50 (HCT-116 colon): 81.3 µM | TGI (HCT-116 colon): > 100 µM | GI50 (EKVX NSCLC): 52 µM | TGI (EKVX NSCLC): > 100 µM | GI50 (MOLT-4 leukemia): 32.7 µM | TGI (MOLT-4 leukemia): > 100 µM | GI50 (NCI/ADR-RES ovarian): > 100 µM | TGI (NCI/ADR-RES ovarian): > 100 µM | GI50 (MALME-3M melanoma): 48.2 µM | TGI (MALME-3M melanoma): > 100 µM | GI50 (RXF 393 renal): > 100 µM | TGI (RXF 393 renal): > 100 µM | GI50 (UACC-257 melanoma): 21.7 µM | TGI (UACC-257 melanoma): 47.1 µM | GI50 (PC-3 prostate): > 100 µM | TGI (PC-3 prostate): > 100 µM | GI50 (OVCAR-4 ovarian): > 100 µM | TGI (OVCAR-4 ovarian): > 100 µM | GI50 (NCI-H322M lung): > 100 µM | TGI (NCI-H322M lung): > 100 µM | GI50 (M14 melanoma): 16.6 µM | TGI (M14 melanoma): 31.1 µM | GI50 (MCF7 breast): > 100 µM | TGI (MCF7 breast): > 100 µM | GI50 (HOP-62 NSCLC): > 100 µM | TGI (HOP-62 NSCLC): > 100 µM | GI50 (LOX IMVI melanoma): > 100 µM | TGI (LOX IMVI melanoma): > 100 µM | GI50 (SK-MEL-2 melanoma): 91.7 µM | TGI (SK-MEL-2 melanoma): > 100 µM | GI50 (RPMI-8226 leukemia): 29.4 µM | TGI (RPMI-8226 leukemia): 95.5 µM | GI50 (HS 578T breast): > 100 µM | TGI (HS 578T breast): > 100 µM | GI50 (OVCAR-5 ovarian): > 100 µM | TGI (OVCAR-5 ovarian): > 100 µM | GI50 (COLO 205 colon): 36.1 µM | TGI (COLO 205 colon): > 100 µM | GI50 (SK-MEL-28 melanoma): 25.6 µM | TGI (SK-MEL-28 melanoma): 54.4 µM | GI50 (SW-620 colon): > 100 µM | TGI (SW-620 colon): > 100 µM | GI50 (IGROV1 ovarian): 71.5 µM | TGI (IGROV1 ovarian): > 100 µM | GI50 (SF-295 CNS): > 100 µM | TGI (SF-295 CNS): > 100 µM | GI50 (ACHN renal): > 100 µM | TGI (ACHN renal): > 100 µM | GI50 (SR leukemia): 35 µM | TGI (SR leukemia): > 100 µM | GI50 (U251 CNS): > 100 µM | TGI (U251 CNS): > 100 µM | GI50 (A549 NSCLC): > 100 µM | TGI (A549 NSCLC): > 100 µM | GI50 (T-47D breast): > 100 µM | TGI (T-47D breast): > 100 µM | GI50 (SNB-75 CNS): > 100 µM | TGI (SNB-75 CNS): > 100 µM | GI50 (DU-145 prostate): > 100 µM | TGI (DU-145 prostate): > 100 µM | GI50 (NCI-H23 lung): > 100 µM | TGI (NCI-H23 lung): > 100 µM | GI50 (SK-OV-3 ovarian): > 100 µM | TGI (SK-OV-3 ovarian): > 100 µM | GI50 (MDA-MB-231 breast): > 100 µM | TGI (MDA-MB-231 breast): > 100 µM
